The text below walks through data of PMC10103840 (2023).

The data set relates to human placental barrier. To be noted: compound not detected in the fetal circuit.

As to `Cc1cc(O)c2c(=O)c3c(O)cc(O)c4c5c(O)cc(O)c6c(=O)c7c(O)cc(C)c8c1c2c(c34)c(c78)c65` [Hypericin, hypericin], the FM ratio entry is on record as “zero”.
